Laboratory results as given in ChEMBL document CHEMBL4431356, “Synthesis and activity of benzimidazole-1,3-dioxide inhibitors of separase” (Bioorg Med Chem Lett, 2016).

Sequences of proteins named here, by UniProt entry; tags and fusion partners are left off. A change or cut given only in a name is not applied to a line headed by its entry.
UniProt Q14674: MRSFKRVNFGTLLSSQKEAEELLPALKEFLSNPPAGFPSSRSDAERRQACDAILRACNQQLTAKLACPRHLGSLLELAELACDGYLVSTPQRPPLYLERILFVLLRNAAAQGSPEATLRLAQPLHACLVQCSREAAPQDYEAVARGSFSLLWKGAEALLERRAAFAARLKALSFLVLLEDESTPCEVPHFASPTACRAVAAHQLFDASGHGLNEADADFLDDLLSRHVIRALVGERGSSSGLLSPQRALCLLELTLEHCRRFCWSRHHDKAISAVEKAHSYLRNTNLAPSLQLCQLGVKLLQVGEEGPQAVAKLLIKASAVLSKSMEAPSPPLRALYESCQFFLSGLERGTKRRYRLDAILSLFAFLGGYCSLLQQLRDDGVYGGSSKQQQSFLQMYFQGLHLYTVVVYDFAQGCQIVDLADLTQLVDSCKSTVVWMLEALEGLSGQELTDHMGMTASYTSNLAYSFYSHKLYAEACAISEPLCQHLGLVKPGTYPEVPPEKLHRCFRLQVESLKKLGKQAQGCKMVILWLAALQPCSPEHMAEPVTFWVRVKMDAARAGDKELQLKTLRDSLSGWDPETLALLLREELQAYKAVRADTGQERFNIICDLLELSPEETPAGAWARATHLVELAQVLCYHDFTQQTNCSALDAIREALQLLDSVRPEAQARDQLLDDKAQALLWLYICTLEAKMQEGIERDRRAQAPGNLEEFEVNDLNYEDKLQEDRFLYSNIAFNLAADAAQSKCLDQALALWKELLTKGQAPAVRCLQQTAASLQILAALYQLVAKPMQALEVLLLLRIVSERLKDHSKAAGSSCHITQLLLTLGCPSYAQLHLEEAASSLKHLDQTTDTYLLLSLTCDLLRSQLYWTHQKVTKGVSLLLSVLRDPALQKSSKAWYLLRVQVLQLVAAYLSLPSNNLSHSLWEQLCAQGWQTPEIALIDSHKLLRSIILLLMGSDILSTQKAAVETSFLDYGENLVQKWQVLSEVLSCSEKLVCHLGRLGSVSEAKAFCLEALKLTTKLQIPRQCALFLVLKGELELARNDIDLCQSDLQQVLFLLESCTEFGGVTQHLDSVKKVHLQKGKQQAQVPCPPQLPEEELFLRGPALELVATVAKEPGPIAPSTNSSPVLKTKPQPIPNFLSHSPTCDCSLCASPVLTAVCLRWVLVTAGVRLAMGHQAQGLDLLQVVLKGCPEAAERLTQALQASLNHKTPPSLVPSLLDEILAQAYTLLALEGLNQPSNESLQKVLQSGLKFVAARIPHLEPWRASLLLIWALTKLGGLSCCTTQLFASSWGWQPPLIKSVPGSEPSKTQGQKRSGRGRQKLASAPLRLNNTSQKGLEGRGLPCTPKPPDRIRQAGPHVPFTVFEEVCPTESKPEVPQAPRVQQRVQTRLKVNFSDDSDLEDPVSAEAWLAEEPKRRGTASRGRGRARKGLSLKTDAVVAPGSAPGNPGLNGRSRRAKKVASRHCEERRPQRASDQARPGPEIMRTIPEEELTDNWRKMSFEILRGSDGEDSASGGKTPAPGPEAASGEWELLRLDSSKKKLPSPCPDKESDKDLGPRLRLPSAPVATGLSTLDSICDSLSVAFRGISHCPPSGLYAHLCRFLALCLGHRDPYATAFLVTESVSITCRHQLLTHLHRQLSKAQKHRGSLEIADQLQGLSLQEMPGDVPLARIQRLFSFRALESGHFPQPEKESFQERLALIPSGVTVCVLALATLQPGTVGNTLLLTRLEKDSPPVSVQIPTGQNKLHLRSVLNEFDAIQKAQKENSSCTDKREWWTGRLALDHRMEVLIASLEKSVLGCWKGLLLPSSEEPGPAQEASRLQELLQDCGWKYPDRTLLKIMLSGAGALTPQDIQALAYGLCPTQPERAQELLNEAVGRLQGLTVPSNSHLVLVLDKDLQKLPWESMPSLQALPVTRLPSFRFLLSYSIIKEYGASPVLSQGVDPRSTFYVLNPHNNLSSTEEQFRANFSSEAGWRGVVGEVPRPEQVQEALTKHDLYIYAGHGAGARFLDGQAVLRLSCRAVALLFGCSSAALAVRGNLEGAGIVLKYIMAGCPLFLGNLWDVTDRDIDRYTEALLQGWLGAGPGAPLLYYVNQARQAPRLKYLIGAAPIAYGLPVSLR

Target: Separin (Homo sapiens, UniProt Q14674)

O=[N+]([O-])c1ccc2no[n+]([O-])c2c1
IC50: > 100 µM
